Columns and labels:
Format in all cases: cell-based, varicella zoster virus
VZV [1] = assay: Light microscopy for cytopathic effect in VZV-infected spinal astrocytes; conditions: 48 and 72 HPI; 10 μM aprepitant from 12 HPI; versus vehicle-only
Experimental: Cell Culture and Infection: Primary human spinal astrocytes (HA-sp; Sciencell, Carlsbad, Calif.) were seeded at 5,000 cells/cm' in a basal astrocyte medium containing 2% fetal bovine serum (FBS), 1% astrocyte growth supplement, and 1% 100× penicillin-streptomycin (Sciencell). After 24 hours, medium was changed to basal astrocyte medium containing 0.1% FBS and 1% 100× penicillin-streptomycin that was replenished every 72 hours for 7 days to establish quiescence. On day 7, spinal astrocytes were co-cultivated with VZV-infected spinal astrocytes (40 pfu/mL) or mock-infected spinal astrocytes. […] Light microscopy images to observe a cytopathic effect were obtained at 12, 24, 48 and 72 HPI followed by DNA extraction and PCR quantification of VZV DNA as described below. Substance P ELISA: Substance P was quantitated from mock- and VZV-infected HA-sp using a colorimetric competitive enzyme immunoassay kit according to the manufacturer's instructions (Enzo, Farmingdale, N.Y.). The sensitivity range was 9.76-10,000 pg/mL, as determined by controls run on the same assay as samples. Immunofluorescence Assay: HA-sp were propagated and treated as described above in an ibidi 24-well μ-Plate (ibidi, Martinsried, Germany). […] GFAP and NK-1R were detected using a 1:500 dilution of chicken anti-GFAP (Abcam) and a 1:100 dilution of rabbit anti-NK-1R (Novus Biologicals LLC, Littleton, Colo.), respectively. […]

VZV [2] = assay: Total VZV DNA in adult primary human perineurial cells (HPNCs); conditions: 72 HPI
Description: (§1) At 12, 24, 48, and 72 HPI, cells were visualized by light microscopy in the untreated and treated cultures and harvested for DNA.

VZV [3] = assay: Total VZV DNA in primary adult human pancreatic islet cells; conditions: 7.5 μM, 6 days post-infection, versus vehicle
Description: as §1

VZV [4] = assay: Total VZV DNA in adult primary human keratocytes; conditions: 7.5 μM, versus vehicle
Description: as §1

VZV [5] = assay: Total VZV DNA in primary human brain vascular adventitial fibroblasts; conditions: 5 μM and 7.5 μM, 72 hours post-infection
Description: as §1

VZV [6] = assay: Total VZV DNA in Guinea Pig Lung Fibroblasts; conditions: 7.5 μM, 72 hours post-infection, versus vehicle
VZV [7] = assay: Total VZV DNA in primary human microglia; conditions: 7.5 μM, versus vehicle
Description: as §1

## C[C@@H](O[C@H]1OCCN(Cc2n[nH]c(=O)[nH]2)[C@H]1c1ccc(F)cc1)c1cc(C(F)(F)F)cc(C(F)(F)F)c1 [aprepitant]
VZV [1]
  cytopathic effect (light microscopy): not in aprepitant-treated samples
VZV [2]; treated at 24 HPI
  total VZV DNA: significantly reduced total VZV DNA
VZV [2]; treated at time of infection
  total VZV DNA: significantly reduced total VZV DNA
VZV [3]
  total VZV DNA: significantly reduced total VZV DNA
VZV [4]; 4 days post-infection
  total VZV DNA: significantly reduced total VZV DNA
VZV [4]; 7 days post-infection
  total VZV DNA: significantly reduced total VZV DNA
VZV [5]
  total VZV DNA: dose-dependent reduction in total VZV DNA
VZV [6]
  total VZV DNA: significantly reduced total VZV DNA
VZV [7]
  total VZV DNA: significantly reduced total VZV DNA

Reference: US20210030761A1, “TREATMENT AND PREVENTION OF ALPHA HERPES VIRUS INFECTION” (THE REGENTS OF THE UNIVERSITY OF COLORADO, a body corporate, priority 2018, published 2021)
